Measurements taken from US12479800B2, “Phenylpropionamide compound and use thereof” (MEDSHINE DISCOVERY INC., priority 2020, dated 2025).

Chains of the proteins cited; added tags and fusions are not shown.
UniProt P41145, whole entry: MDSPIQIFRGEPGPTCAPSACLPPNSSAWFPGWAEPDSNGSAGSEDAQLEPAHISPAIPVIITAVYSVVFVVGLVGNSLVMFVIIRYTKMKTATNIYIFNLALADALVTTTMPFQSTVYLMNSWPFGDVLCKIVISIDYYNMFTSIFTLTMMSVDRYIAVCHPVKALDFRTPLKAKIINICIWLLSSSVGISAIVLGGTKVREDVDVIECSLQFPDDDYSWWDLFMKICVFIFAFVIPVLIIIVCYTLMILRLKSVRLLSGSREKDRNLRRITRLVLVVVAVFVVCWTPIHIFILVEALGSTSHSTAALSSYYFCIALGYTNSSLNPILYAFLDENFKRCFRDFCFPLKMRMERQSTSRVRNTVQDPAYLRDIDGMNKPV

Biological target: Kappa receptor (Homo sapiens (Human), UniProt P41145)
Assay: cAMP test of Kappa receptor
Settings: read-out: EC50 value of the compound to Kappa receptor; KOR cAMP cells
Procedure: Experimental Embodiment 1: cAMP Test of Kappa Receptor
Experimental buffer: 1*HBSS (+/+) (SIGMA #H1387)+20 mM HEPES (LONZA #17-737E)
Stimulation buffer (STB): 200 μM IBMX (SIGMA #I7018) and 3 μM NKH477 (SIGMA #N3290) experimental buffer
Experimental Methods and Steps
The compound powder was dissolved with DMSO (Amresco #0231), and the concentration of the compound solution was 10 mM. 1 μL of the test compound was taken, and 49 μL of DMSO was added thereto, and the mixture was diluted to 200 μM of solution.
A LDV 384-well plate was taken, and the compound solution diluted in the previous step was respectively added to wells A1 to H1; a pre-prepared 200 μM of U-50488 (Tocris #0495/25) was taken and added to well P1; 10.8 μL of DMSO was added to each well of A2 to A11, […], and P2 to P11, respectively, and the mixture was centrifuged at 1000 rpm for 30 seconds.
Continuous gradient dilutions of compounds were performed with bravo, and the first column of LDV plate prepared in the previous step was taken as the initial concentration column, and 5 μL was sucked into the next column each time and blown and mixed evenly. […]
Cell density was counted and adjusted on a cell counter to 1.5*10^6 cells/mL. […]
Experimental plates were read with Envision.

CNC(=O)NC1CCN(C(=O)[C@@H](CCCCN)NC(=O)[C@@H](CC2CC2)NC(=O)[C@@H](Cc2ccccc2)NC(=O)CNC[C@H](C)c2ccccc2)CC1
EC50: 0.04 nM
